## Ab-91 heavy chain CDR variants: yeast mating affinities

Data: MIT Lincoln Laboratory AlphaSeq set, Engelhart et al. 2022, doi:10.1038/s41597-022-01779-4, as distributed in FLAb.

Target peptide (SARS-CoV-2 spike, HR2 region): PDVDLGDISGINAS

Parent: Ab-91, a human scFv built as VL, three GGGGS repeats, VH. Only the CDRs of the heavy chain vary.
VL: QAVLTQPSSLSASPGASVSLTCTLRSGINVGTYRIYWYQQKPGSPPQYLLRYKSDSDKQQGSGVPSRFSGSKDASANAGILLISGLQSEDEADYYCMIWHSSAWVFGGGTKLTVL
VH: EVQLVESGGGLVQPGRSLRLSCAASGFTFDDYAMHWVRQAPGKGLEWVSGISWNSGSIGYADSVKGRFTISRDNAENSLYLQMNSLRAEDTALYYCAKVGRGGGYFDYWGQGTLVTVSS

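The starting antibody came from a phage panning campaign against this peptide. AAYL51 was designed without a model: most single CDR substitutions and a random sample of double and triple ones. AlphaSeq pools MATa yeast showing the antibodies with MATalpha yeast showing the peptide. The frequency of each diploid, read from paired DNA barcodes, reflects how well the two displayed proteins bind. Scores were corrected for input abundance and mapped to Kd with protein pairs of known affinity run in the same pool. Mating was done three times.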

Changes read parent residue, position, new residue, counted from the first residue of the VH shown. The read-out is the apparent dissociation constant on a log10 scale (nM): the lower, the stronger. "ND" means that the variant was in the library but no mating with the target was seen in that replicate; the authors take this as a sign of poor binding, and no number exists. In this assay the parent's reference entry averaged 1.86; its copy inside this library read 0.88.

changes,"log10 Kd, replicates",control signals
D31A+A61T+K65G,1.79 / 1.75 / 1.28,2 of 9 (4.36)
D30T+S57V+G103M,ND / ND / 1.81,0 of 9
D30Y+Y32P+G50F,ND / ND / ND,0 of 9
D30L+G103S+F106E,4.43 / ND / ND,0 of 9
N54H+R101C,2.42 / 2.11 / 2.18,2 of 9 (3.90)
M34H+I51N+G103I,3.98 / 3.83 / ND,3 of 9 (4.66)
G26I+N54S+K65L,4.81 / ND / ND,1 of 9 (4.09)
A33M+K65V+Y105E,ND / ND / ND,3 of 9 (4.81)
F27Y+T28C+G103L,3.20 / 4.49 / 2.29,0 of 9
F29L+G59H+Y108E,5.59 / ND / ND,0 of 9
T28E+D31R+Y108S,0.60 / 0.55 / -0.28,0 of 9
D31A+A61V+G100S,4.12 / ND / 5.02,1 of 9 (4.76)
F27P+A33R+R101Y,4.89 / 5.00 / ND,5 of 9 (4.95)
Y32L+G59A+S63R,ND / ND / ND,3 of 9 (4.48)
Y32G+A33F,ND / ND / ND,0 of 9
T28R+W53N+R101D,ND / ND / 3.94,1 of 9 (4.09)
G50P+K65N+G103D,ND / ND / ND,0 of 9
V64M+G104R+Y108N,1.41 / 1.57 / 1.33,2 of 9 (4.43)
G26K+H35T+Y105V,ND / ND / ND,5 of 9 (5.01)
F29L+N54W+Y108D,ND / ND / 3.95,0 of 9
G102Y,ND / ND / ND,0 of 9
F27M+I51L+W53A,2.27 / 2.17 / 2.36,1 of 9 (5.74)
F29Y+A33W+N54M,4.47 / ND / ND,0 of 9
Y32R+I51C+V99N,ND / ND / ND,0 of 9
G56L+D62V+V64R,ND / ND / ND,0 of 9
G26P+D30K+S57N,ND / ND / 3.68,1 of 9 (3.77)
F27H+S55W+A61R,ND / ND / ND,1 of 9 (4.40)
Y32P+W53T+N54S,ND / ND / 2.59,1 of 9 (3.93)
K65S+D107P,ND / ND / ND,2 of 9 (4.24)
S52Y+G104P,ND / ND / ND,0 of 9
G26N+I51G+K65Y,ND / 4.41 / ND,3 of 9 (5.03)
G26P+I51R,1.42 / 1.33 / 1.01,0 of 9
D31G+S57C+G102Y,ND / ND / ND,0 of 9

The closing 2 entries, repeated:

changes	log10 Kd, replicates	control signals
G26P+I51R	1.42 / 1.33 / 1.01	0 of 9
D31G+S57C+G102Y	ND / ND / ND	0 of 9

As a blank, each scFv also met three strains without target: over library AAYL51, 21% of these pairings were detected, typically at 4.54 and seldom below 3.26. The control count says in how many pairings with the empty strains this scFv gave a signal, with their mean in brackets.